# According to article PMC5007486, “Thermodynamic instability of viral proteins is a pathogen-associated molecular pattern targeted by human defensins” (Scientific Reports, 2016):
# Legend:
# PFV IN = assay type: binding, prototype foamy virus (PFV); details: DSF, absence of salt (20 mM HEPES, pH 7.5)
# Source text: (§1) Differential scanning fluorimetry (DSF)
# TEV Protease = assay type: binding, tobacco etch virus (TEV); details: DSF, absence of salt (20 mM HEPES, pH 7.5)
# Source text: as §1
substance,measurement,setting,value
"hBD-1: human β-defensin hBD-1, prepared by solid-phase peptide synthesis (DHYNCVSSGGQCLYSACPIFTKIQGTCYRGKAKCCK; ends and bridges not checked; cysteine pairing not given here; UniProt P60022 33-68, looked up)","Effect on melting profile of PFV IN, no salt",PFV IN,no significant changes in melting profiles
same,"Effect on melting profile of TEV protease, no salt",TEV Protease,no significant changes in melting profiles

# Where no end group is shown, it is not given here.
